## Permeability data for macrocyclic peptides

Collected by the curators of CycPeptMPDB (Li et al. 2023) from Kelly et al. 2021, doi:10.1021/jacs.0c06115.

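The data file gives no further conditions (lipid, pH, time, direction or concentration), and values from different papers need not be comparable. Other peptides of the study may be missing here. Entries at the database's floor value (log10 P of -10) are not listed.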

PAMPA is the parallel artificial membrane permeability assay, which has no cells and reads passive diffusion.
Permeability is in 10^-6 cm/s, converted from the database's log10 values; higher is more permeable.

CC(=O)N1CCC[C@@H]1C(=O)N(C)[C@H](CC(C)C)C(=O)N[C@@H]1C(=O)N(C)[C@H](CC(C)C)C(=O)N[C@H](CC(C)C)C(=O)N[C@H](CC(C)C)C(=O)N[C@H](C)C(=O)N[C@H](CC(C)C)C(=O)N2CCC[C@@H]2C(=O)O[C@@H]1C is reported with PAMPA 0.046 × 10^-6 cm/s.
CC(=O)N1CCC[C@H]1C(=O)N[C@@H]1C(=O)N[C@H](CC(C)C)C(=O)N[C@@H](CC(C)C)C(=O)N(C)[C@@H](CC(C)C)C(=O)N[C@H](CC(C)C)C(=O)N[C@H](C)C(=O)N[C@@H](CC(C)C)C(=O)N2CCC[C@@H]2C(=O)O[C@@H]1C is reported with PAMPA 8.3 × 10^-6 cm/s.
CC(=O)N1CCC[C@@H]1C(=O)N(C)[C@H](CC(C)C)C(=O)N[C@@H]1C(=O)N(C)[C@H](CC(C)C)C(=O)N[C@@H](CC(C)C)C(=O)N(C)[C@@H](CC(C)C)C(=O)N(C)[C@H](C)C(=O)N[C@@H](CC(C)C)C(=O)N2CCC[C@@H]2C(=O)O[C@@H]1C is reported with PAMPA 2.3 × 10^-6 cm/s.
CC(=O)N1CCC[C@H]1C(=O)N[C@@H]1C(=O)N[C@H](CC(C)C)C(=O)N[C@@H](CC(C)C)C(=O)N[C@H](CC(C)C)C(=O)N[C@@H](CC(C)C)C(=O)N[C@@H](C)C(=O)N[C@@H](CC(C)C)C(=O)N2CCC[C@@H]2C(=O)O[C@@H]1C is reported with PAMPA 0.35 × 10^-6 cm/s.
CC(=O)N1CCC[C@H]1C(=O)N(C)[C@@H](CC(C)C)C(=O)N[C@@H]1C(=O)N(C)[C@@H](CC(C)C)C(=O)N[C@@H](CC(C)C)C(=O)N[C@@H](CC(C)C)C(=O)N[C@@H](C)C(=O)N[C@H](CC(C)C)C(=O)N2CCC[C@H]2C(=O)O[C@@H]1C is reported with PAMPA 0.05 × 10^-6 cm/s.
CC(=O)N1CCC[C@@H]1C(=O)N(C)[C@H](CC(C)C)C(=O)N[C@@H]1C(=O)N[C@H](CC(C)C)C(=O)N[C@@H](CC(C)C)C(=O)N[C@H](CC(C)C)C(=O)N(C)[C@@H](C)C(=O)N[C@@H](CC(C)C)C(=O)N2CCC[C@H]2C(=O)O[C@@H]1C is reported with PAMPA 3.2 × 10^-6 cm/s.
CC(=O)N1CCC[C@H]1C(=O)N(C)[C@H](CC(C)C)C(=O)N[C@@H]1C(=O)N[C@@H](CC(C)C)C(=O)N[C@@H](CC(C)C)C(=O)N[C@H](CC(C)C)C(=O)N[C@@H](C)C(=O)N[C@@H](CC(C)C)C(=O)N2CCC[C@@H]2C(=O)O[C@@H]1C is reported with PAMPA 0.27 × 10^-6 cm/s.
CC(=O)N1CCC[C@@H]1C(=O)N(C)[C@@H](CC(C)C)C(=O)N[C@@H]1C(=O)N(C)[C@@H](CC(C)C)C(=O)N(C)[C@H](CC(C)C)C(=O)N(C)[C@H](CC(C)C)C(=O)N[C@@H](C)C(=O)N[C@H](CC(C)C)C(=O)N2CCC[C@@H]2C(=O)O[C@@H]1C is reported with PAMPA 2.1 × 10^-6 cm/s.
CC(=O)N1CCC[C@@H]1C(=O)N(C)[C@H](CC(C)C)C(=O)N[C@@H]1C(=O)N[C@@H](CC(C)C)C(=O)N[C@@H](CC(C)C)C(=O)N(C)[C@@H](CC(C)C)C(=O)N[C@@H](C)C(=O)N[C@H](CC(C)C)C(=O)N2CCC[C@@H]2C(=O)O[C@@H]1C is reported with PAMPA 0.14 × 10^-6 cm/s.
CC(=O)N1CCC[C@@H]1C(=O)N(C)[C@H](CC(C)C)C(=O)N[C@@H]1C(=O)N(C)[C@H](CC(C)C)C(=O)N[C@H](CC(C)C)C(=O)N[C@H](CC(C)C)C(=O)N(C)[C@H](C)C(=O)N[C@@H](CC(C)C)C(=O)N2CCC[C@H]2C(=O)O[C@@H]1C is reported with PAMPA 0.63 × 10^-6 cm/s.
CC(=O)N1CCC[C@H]1C(=O)N[C@@H]1C(=O)N[C@H](CC(C)C)C(=O)N(C)[C@H](CC(C)C)C(=O)N[C@@H](CC(C)C)C(=O)N[C@H](CC(C)C)C(=O)N(C)[C@H](C)C(=O)N[C@@H](CC(C)C)C(=O)N2CCC[C@@H]2C(=O)O[C@@H]1C is reported with PAMPA 13 × 10^-6 cm/s.
CC(=O)N1CCC[C@H]1C(=O)N(C)[C@H](CC(C)C)C(=O)N[C@@H]1C(=O)N[C@H](CC(C)C)C(=O)N[C@H](CC(C)C)C(=O)N[C@H](CC(C)C)C(=O)N[C@@H](C)C(=O)N[C@H](CC(C)C)C(=O)N2CCC[C@H]2C(=O)O[C@@H]1C is reported with PAMPA 0.42 × 10^-6 cm/s.
CC(=O)N1CCC[C@H]1C(=O)N(C)[C@@H](CC(C)C)C(=O)N[C@@H]1C(=O)N(C)[C@@H](CC(C)C)C(=O)N(C)[C@H](CC(C)C)C(=O)N[C@@H](CC(C)C)C(=O)N[C@@H](C)C(=O)N[C@@H](CC(C)C)C(=O)N2CCC[C@@H]2C(=O)O[C@@H]1C is reported with PAMPA 0.16 × 10^-6 cm/s.
CC(=O)N1CCC[C@H]1C(=O)N(C)[C@H](CC(C)C)C(=O)N[C@@H]1C(=O)N[C@@H](CC(C)C)C(=O)N[C@H](CC(C)C)C(=O)N(C)[C@@H](CC(C)C)C(=O)N(C)[C@@H](C)C(=O)N[C@@H](CC(C)C)C(=O)N2CCC[C@H]2C(=O)O[C@@H]1C is reported with PAMPA 1.3 × 10^-6 cm/s.
CC(=O)N1CCC[C@@H]1C(=O)N(C)[C@H](CC(C)C)C(=O)N[C@@H]1C(=O)N(C)[C@@H](CC(C)C)C(=O)N(C)[C@@H](CC(C)C)C(=O)N(C)[C@H](CC(C)C)C(=O)N(C)[C@@H](C)C(=O)N[C@H](CC(C)C)C(=O)N2CCC[C@H]2C(=O)O[C@@H]1C is reported with PAMPA 0.89 × 10^-6 cm/s.
CC(=O)N1CCC[C@@H]1C(=O)N(C)[C@H](CC(C)C)C(=O)N[C@@H]1C(=O)N[C@H](CC(C)C)C(=O)N(C)[C@H](CC(C)C)C(=O)N(C)[C@H](CC(C)C)C(=O)N(C)[C@@H](C)C(=O)N[C@@H](CC(C)C)C(=O)N2CCC[C@H]2C(=O)O[C@@H]1C is reported with PAMPA 2.4 × 10^-6 cm/s.

Again, the 2 entries with the lowest PAMPA:

{"smiles": "CC(=O)N1CCC[C@@H]1C(=O)N(C)[C@H](CC(C)C)C(=O)N[C@@H]1C(=O)N(C)[C@H](CC(C)C)C(=O)N[C@H](CC(C)C)C(=O)N[C@H](CC(C)C)C(=O)N[C@H](C)C(=O)N[C@H](CC(C)C)C(=O)N2CCC[C@@H]2C(=O)O[C@@H]1C", "PAMPA (10^-6 cm/s)": "0.046"}
{"smiles": "CC(=O)N1CCC[C@H]1C(=O)N(C)[C@@H](CC(C)C)C(=O)N[C@@H]1C(=O)N(C)[C@@H](CC(C)C)C(=O)N[C@@H](CC(C)C)C(=O)N[C@@H](CC(C)C)C(=O)N[C@@H](C)C(=O)N[C@H](CC(C)C)C(=O)N2CCC[C@H]2C(=O)O[C@@H]1C", "PAMPA (10^-6 cm/s)": "0.05"}